Measured values taken from ChEMBL document CHEMBL1156120, “18F stilbenes and styrylpyridines for PET imaging of A beta plaques in Alzheimer's disease: a miniperspective” (J Med Chem, 2010).

The chains behind the UniProt entries cited, without tags or fusion partners.
UniProt P05067, whole entry: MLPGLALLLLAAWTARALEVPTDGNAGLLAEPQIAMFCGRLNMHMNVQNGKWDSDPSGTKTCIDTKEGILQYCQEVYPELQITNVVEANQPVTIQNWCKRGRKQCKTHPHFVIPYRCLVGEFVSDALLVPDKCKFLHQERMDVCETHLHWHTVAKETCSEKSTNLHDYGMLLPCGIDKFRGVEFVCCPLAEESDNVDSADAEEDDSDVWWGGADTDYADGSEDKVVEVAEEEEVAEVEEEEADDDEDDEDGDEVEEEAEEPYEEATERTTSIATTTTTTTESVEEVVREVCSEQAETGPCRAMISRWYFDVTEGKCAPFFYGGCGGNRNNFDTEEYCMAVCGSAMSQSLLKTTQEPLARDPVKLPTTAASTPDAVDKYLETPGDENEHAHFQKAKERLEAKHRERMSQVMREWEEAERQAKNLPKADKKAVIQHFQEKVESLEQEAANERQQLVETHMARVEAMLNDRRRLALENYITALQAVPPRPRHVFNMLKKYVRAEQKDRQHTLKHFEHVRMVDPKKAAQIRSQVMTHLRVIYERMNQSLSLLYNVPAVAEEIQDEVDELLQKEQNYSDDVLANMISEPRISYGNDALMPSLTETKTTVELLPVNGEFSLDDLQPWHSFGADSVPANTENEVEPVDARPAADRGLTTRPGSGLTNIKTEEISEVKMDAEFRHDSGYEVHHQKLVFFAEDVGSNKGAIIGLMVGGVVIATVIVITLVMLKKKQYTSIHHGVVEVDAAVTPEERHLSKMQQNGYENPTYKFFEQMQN

Target: Amyloid-beta precursor protein (Homo sapiens, UniProt P05067)
Experiment: Binding affinity to Beta amyloid aggregates in Alzheimer's disease patient brain by competitive binding assay
How it was run: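 Competition binding against ¹⁸F-AV-45 (0.04–0.06 nM, diluted in PBS) in postmortem AD brain homogenate (20–25 µg per assay). Competitors were serially diluted 10⁻⁵–10⁻¹⁰ M in PBS with 0.1% bovine serum albumin, in a final volume of 0.5 mL. Inhibition constant (Ki) derived from displacement.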

Ki: > 1 µM
SMILES: Cc1ccc2c(c1)sc(-c1ccc(N(C)C)cc1)[n+]2C [THIOFLAVIN T]
